Data as given in publication PMC7381729, “A new class of PentixaFor- and PentixaTher-based theranostic agents with enhanced CXCR4-targeting efficiency” (Theranostics, 2020).

Protein sequences, listed by entry. Tags and fused reporters are not part of them.
UniProt P70658, whole entry: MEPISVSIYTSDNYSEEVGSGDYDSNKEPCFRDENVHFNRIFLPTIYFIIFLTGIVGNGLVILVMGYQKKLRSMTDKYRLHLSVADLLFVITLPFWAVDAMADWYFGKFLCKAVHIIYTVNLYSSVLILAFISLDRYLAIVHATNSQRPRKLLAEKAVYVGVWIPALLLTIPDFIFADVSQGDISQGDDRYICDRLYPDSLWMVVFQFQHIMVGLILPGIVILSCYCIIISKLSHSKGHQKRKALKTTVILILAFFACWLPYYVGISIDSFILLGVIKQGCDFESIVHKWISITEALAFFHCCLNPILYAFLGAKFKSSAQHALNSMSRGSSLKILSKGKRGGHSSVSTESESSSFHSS

Biological target: murine CXCR4 (mCXCR4) (Mus musculus, UniProt P70658)
Assay: Competition binding to mCXCR4, Eµ-myc 1080 mouse lymphoma cells, [125I]CPCR4.3 as radioligand
Details: read-out: IC50 [nM] to mCXCR4, Eµ-myc 1080 mouse lymphoma cells 200.000 cells/sample, means ± SD of min. three separate experiments

For `CN1C(=O)[C@@H](Cc2ccc(O)cc2)NC(=O)CNC(=O)[C@H](Cc2ccc3ccccc3c2)NC(=O)[C@H](CCCNC(=N)N)NC(=O)[C@H]1CCCNC(=O)c1ccc(CNC(=O)CN2CCN(CC(=O)O)CCN(CC(=O)O)CCN(CC(=O)O)CC2)cc1` [[^68Ga]PentixaFor, cyclo(D-Tyr^1-D-[NMe]Orn^2(AMBS-[^68Ga]DOTA)-Arg^3-Nal^4-Gly^5), metal not drawn], the IC50 was over 1000 nM.
